# Laboratory results from ChEMBL document CHEMBL4011652, “Discovery of Novel Potent Reversible and Irreversible Myeloperoxidase Inhibitors Using Virtual Screening Procedure” (J Med Chem, 2017).
# Tests used:
# [1] = biological target: T1, Myeloperoxidase (Homo sapiens) (UniProt P05164); experiment: Reversible inhibition of recombinant MPO (unknown origin) assessed as reduction in TMB peroxidation at 5 uM in presence of NaCl and tyrosine incubated for 5 mins followed by H2O2 addition measured after 10 mins by spectrophotometric method
# T1 sequence (whole entry): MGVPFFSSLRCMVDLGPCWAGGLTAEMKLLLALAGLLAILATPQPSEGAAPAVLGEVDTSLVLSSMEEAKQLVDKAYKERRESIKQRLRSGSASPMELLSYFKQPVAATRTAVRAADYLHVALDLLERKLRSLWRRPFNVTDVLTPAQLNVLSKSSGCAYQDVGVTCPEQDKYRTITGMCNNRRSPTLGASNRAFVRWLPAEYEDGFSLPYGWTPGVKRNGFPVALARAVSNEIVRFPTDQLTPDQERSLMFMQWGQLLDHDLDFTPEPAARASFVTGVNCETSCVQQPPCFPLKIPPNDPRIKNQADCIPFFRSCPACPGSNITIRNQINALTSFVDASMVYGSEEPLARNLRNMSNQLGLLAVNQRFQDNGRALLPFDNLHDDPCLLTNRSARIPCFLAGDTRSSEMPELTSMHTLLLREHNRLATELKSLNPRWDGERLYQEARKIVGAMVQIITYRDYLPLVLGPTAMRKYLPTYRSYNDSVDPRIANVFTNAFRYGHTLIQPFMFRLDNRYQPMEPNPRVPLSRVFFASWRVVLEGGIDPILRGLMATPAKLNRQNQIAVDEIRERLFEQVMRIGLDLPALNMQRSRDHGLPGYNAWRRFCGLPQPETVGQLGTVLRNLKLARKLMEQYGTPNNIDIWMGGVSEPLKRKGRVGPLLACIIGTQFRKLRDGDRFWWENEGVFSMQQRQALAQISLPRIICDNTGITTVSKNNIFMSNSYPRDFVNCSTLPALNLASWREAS
# [2] = biological target: T1, Myeloperoxidase (Homo sapiens); experiment: Inhibition of MPO (unknown origin) assessed as apparent bi-molecular rate constant for PorFe(4)=O radical reduction by stopped-flow spectroscopic analysis
# [3] = biological target: T1, Myeloperoxidase (Homo sapiens); experiment: Inhibition of recombinant MPO (unknown origin) assessed as reduction in TMB peroxidation by measuring residual activity at 5 uM in presence of H2O2 incubated for 5 mins followed by 100 fold enzyme dilution relative to control
# [4] = biological target: T1, Myeloperoxidase (Homo sapiens); experiment: Inhibition of recombinant MPO (unknown origin) assessed as reduction in TMB peroxidation by measuring residual activity at 5 uM in presence of H2O2 and NaCl incubated for 5 mins followed by 100 fold enzyme dilution relative to control
# [5] = biological target: T1, Myeloperoxidase (Homo sapiens); experiment: Inhibition of recombinant MPO (unknown origin) assessed as reduction in TMB peroxidation by measuring residual activity at 5 uM in absence of H2O2 incubated for 5 mins followed by 100 fold enzyme dilution relative to control
# [6] = biological target: T1, Myeloperoxidase (Homo sapiens); experiment: Inhibition of MPO (unknown origin) assessed as apparent bi-molecular rate constant for PorFe(4)-OH reduction by stopped-flow spectroscopic analysis
structure (smiles),measurement,setting,value
CCN(CC)CCNC(=O)c1cc(Cl)c(N)cc1OC [METOCLOPRAMIDE],inhibition,[1],Active
same,Kapp,[2],2.6 ×10⁶ /M/s
same,Activity,[3],86%
same,Activity,[4],83%
same,Activity,[5],91%
same,Kapp,[6],180 M⁻¹ s⁻¹

# Activity calls are given as the source filed them. The rule behind the calls is not given here.
